Chains of the proteins cited; added tags and fusions are not shown. Residues count along the entry.
UniProt P25116, 22-425: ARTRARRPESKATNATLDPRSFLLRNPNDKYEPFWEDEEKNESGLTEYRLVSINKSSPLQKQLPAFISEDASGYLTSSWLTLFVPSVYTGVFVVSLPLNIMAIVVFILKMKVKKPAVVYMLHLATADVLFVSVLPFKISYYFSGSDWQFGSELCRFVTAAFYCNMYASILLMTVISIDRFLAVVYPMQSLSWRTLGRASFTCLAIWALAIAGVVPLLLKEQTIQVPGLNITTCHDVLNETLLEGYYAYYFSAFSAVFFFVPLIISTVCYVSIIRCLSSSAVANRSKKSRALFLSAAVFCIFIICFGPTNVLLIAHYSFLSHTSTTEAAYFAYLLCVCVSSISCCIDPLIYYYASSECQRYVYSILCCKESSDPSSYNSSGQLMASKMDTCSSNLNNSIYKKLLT

In patent US8987248B2, “Substituted piperidines as Par-1 antagonists” (Bayer Intellectual Property GmbH, priority 2009, dated 2015):

Target: human protease activated receptor 1 (PAR-1) (Homo sapiens (Human), UniProt P25116)
Assay: Cellular, functional in vitro test (aequorin luminescence, calcium release in recombinant HEK293 PAR-1 test cell)
Format: cell-based
Settings: HEK293-derived PAR-1 test cell line expressing aequorin; PAR-1 agonist added at its EC50, 5 min after test substance
From the text: 1.a) Cellular, Functional In Vitro Test
A recombinant cell line is used to identify […] of the human protease activated receptor 1 (PAR-1) and to quantify the activity of the substances described herein. The cell is originally derived from a human embryonal kidney cell (HEK293; ATCC: American Type Culture Collection, Manassas, Va. 20108, USA). The test cell line constitutively expresses a modified form of the calcium-sensitive photoprotein aequorin which, after reconstitution with the cofactor coelenterazine, emits light when the free calcium concentration in the inner mitochondrial compartment is increased (Rizzuto R, Simpson A W, Brini M, Pozzan T.; Nature 1992, 358, 325-327). Additionally, the cell stably expresses the endogenous human PAR-1 receptor and the endogenous purinergic receptor P2Y2. The resulting PAR-1 test cell responds to stimulation of the endogenous PAR-1 or P2Y2 receptor with an intracellular release of calcium ions, which can be quantified through resulting aequorin luminescence with a suitable luminometer (Milligan G, Marshall F, Rees S, Trends in Pharmacological Sciences 1996, 17, 235-237).
For the testing of the substance specificity, the effect thereof after activation of the endogenous PAR-1 receptor is compared with the effect after activation of the endogenous purinergic P2Y2 receptor which utilizes the same intracellular signal path.
Two days (48 hours) before the assay, the cells are plated out in culture medium (DMEM F12, supplemented with 10% FCS, 2 mM glutamine, 10 mM HEPES, 1.4 mM pyruvate, 0.1 mg/ml gentamycin, 0.15% Na bicarbonate; BioWhittaker Cat. #BE04-687Q; B-4800 Verviers, Belgium) in 384-well microtitre plates and kept in a cell incubator (96% humidity, 5% v/v CO2, 37° C.). On the day of the test, the culture medium is replaced by a tyrode solution (in mM: 140 sodium chloride, 5 potassium chloride, 1 magnesium chloride, 2 calcium chloride, 20 glucose, 20 HEPES), which additionally contains the cofactor coelenterazine (25 μM) and glutathione (4 mM), and the microtitre plate is then incubated for a further 3-4 hours. The test substances are then pipetted onto the microtitre plate, and 5 minutes after the transfer of the test substances into the wells of the microtitre plate the plate is transferred into the luminometer, a PAR-1 agonist concentration which corresponds to the EC50 is added and the resulting light signal is immediately measured in the luminometer. To distinguish an antagonist substance action from a toxic action, the endogenous purinergic receptor is immediately subsequently activated with agonist (ATP, final concentration 10 μM) and the resulting light signal is measured.

Row | Compound | IC50
1 | CCc1ccc(C2CC(NC(=O)NC(C)(C)C)CN(C(=O)C3CCCC3)C2)cc1 (racemic) [Example 97, 1-tert-Butyl-3-[1-(cyclopentylcarbonyl)-5-(4-ethylphenyl)piperidin-3-yl]urea] | 109 nM
2 | N#CC1CCN(C(=O)N2CC(NC(=O)c3ccccc3)CC(c3ccc(OC(F)(F)F)cc3)C2)CC1 (racemic) [Example 106, N-{1-[(4-Cyanopiperidin-1-yl)carbonyl]-5-[4-(trifluoromethoxy)phenyl]piperidin-3-yl}benzenecarboxamide] | 7.05 nM
3 | CC(C)c1cccc(C2CC(NC(=O)c3ccccc3)CN(C(=O)N3CCOCC3)C2)c1 (racemic) [Example 121, N-{1-(Morpholin-4-ylcarbonyl)-5-[3-(propan-2-yl)phenyl]piperidin-3-yl}benzenecarboxamide] | 79.9 nM
4 | CCc1ccc(C2CC(NC(=O)c3cccc(OC)c3)CN(C(=O)N3CCC(C#N)CC3)C2)cc1 (racemic) [Example 156, N-{1-[(4-Cyanopiperidin-1-yl)carbonyl]-5-(4-ethylphenyl)piperidin-3-yl}-3-methoxybenzenecarboxamide] | 11.1 nM
